From US20070105759A1 (priority 2003, published 2007)

The chains behind the UniProt entries cited, without tags or fusion partners.
UniProt P32245, whole entry: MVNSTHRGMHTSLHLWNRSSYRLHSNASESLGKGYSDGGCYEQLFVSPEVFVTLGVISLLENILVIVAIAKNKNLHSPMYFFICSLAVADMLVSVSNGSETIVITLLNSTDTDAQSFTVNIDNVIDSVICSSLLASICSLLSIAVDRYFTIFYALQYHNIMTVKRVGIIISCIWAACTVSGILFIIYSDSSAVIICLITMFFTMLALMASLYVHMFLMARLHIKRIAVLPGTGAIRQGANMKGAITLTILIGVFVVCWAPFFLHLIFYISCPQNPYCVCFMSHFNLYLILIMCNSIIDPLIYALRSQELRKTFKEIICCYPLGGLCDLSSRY

Target: MC4 (Homo sapiens, UniProt P32245)
Details: read-out: MC4 Ki

SMILES | Ki
CC(=O)N[C@H]1CSSCC[C@@H](C(N)=O)NC(=O)[C@H](Cc2c[nH]c3ccccc23)NC(=O)[C@H](CCCNC(=N)N)NC(=O)[C@@H](Cc2ccc(F)cc2)NC(=O)[C@H](Cc2c[nH]cn2)NC1=O [Compound No. 184, Ac-cyclo[Cys-His-(4-F-D-Phe)-Arg-Trp-hCys]-NH2] | 2.51 nM
CC(=O)N[C@@H](CCCNC(=N)N)C(=O)N[C@H]1CCSSCC[C@@H](C(N)=O)NC(=O)[C@H](Cc2c[nH]c3ccccc23)NC(=O)[C@H](CCCNC(=N)N)NC(=O)[C@@H](Cc2ccccc2)NC(=O)[C@H](Cc2c[nH]cn2)NC1=O [Compound No. 195, Ac-Arg-cyclo[hCys-His-D-Phe-Arg-Trp-hCys]-NH2] | 0.87 nM
